The entries are a selection whose mix differs from that of the whole data set. The source made the active and inactive calls.

Sequences of proteins named here, by UniProt entry; tags and fusion partners are left off.
UniProt P09923, whole entry: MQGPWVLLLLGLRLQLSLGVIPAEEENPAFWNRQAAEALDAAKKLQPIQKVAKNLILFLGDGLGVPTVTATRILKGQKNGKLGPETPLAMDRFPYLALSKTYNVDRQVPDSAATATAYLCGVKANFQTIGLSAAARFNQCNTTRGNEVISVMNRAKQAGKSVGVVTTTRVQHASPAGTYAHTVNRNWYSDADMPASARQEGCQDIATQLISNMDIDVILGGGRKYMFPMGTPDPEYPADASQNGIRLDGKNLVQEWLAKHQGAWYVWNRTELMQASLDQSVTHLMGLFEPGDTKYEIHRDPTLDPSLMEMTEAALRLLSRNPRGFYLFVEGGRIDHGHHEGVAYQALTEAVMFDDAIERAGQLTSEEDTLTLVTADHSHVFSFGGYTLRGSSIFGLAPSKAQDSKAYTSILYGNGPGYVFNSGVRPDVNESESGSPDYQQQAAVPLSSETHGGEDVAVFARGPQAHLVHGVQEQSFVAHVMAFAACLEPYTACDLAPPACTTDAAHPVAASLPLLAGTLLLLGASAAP

The target in the assay is Intestinal-type alkaline phosphatase (Homo sapiens) (UniProt P09923). Kind of assay: enzymatic activation of intestinal alkaline phosphatase – biochemical, luminescence, uHTS, primary screen (AID 2524). The note with it: purified human IAP, CDP-Star luminescence, 30 min; at 10 µM; stronger effect = higher value; 1 = vehicle-only enzyme, 0 = enzyme-free background.
As for `CCCCOc1ccc(C(=O)NCC2(N3CCOCC3)CCCCC2)cc1`, the activation factor was inactive: 1.16.

On to `COc1ccc(NC2CCN(CCc3ccccc3)CC2)c(OC)c1`, for which the activation factor is inactive: 0.918.

For the molecule `CCOC(=O)N1CCC(Nc2ccc(F)cc2)CC1`, the activation factor is inactive: 1.11.

Take `CCOC(=O)N1CCC(Nc2cccc(C)c2)CC1`: the activation factor was inactive: 0.979.

On to `Cc1ccc(OCC(C)C)c(CN(CCCl)CCCl)c1`, for which the activation factor was inactive: 0.986.

Turning to `O=C(NCC1(N2CCCCC2)CCCCC1)c1ccc(=O)[nH]c1`, the activation factor is inactive: 0.959.

Turning to `O=C(NCC1(N2CCCCC2)CCCCC1)c1cccs1`, the activation factor was inactive: 0.936.

`COc1ccc(C(=O)NCC2(N3CCCCC3)CCCCC2)cc1`: the activation factor is inactive: 0.968.

With `COc1ccc(C(=O)NCC2(N3CCCCC3)CCCCC2)c(OC)c1OC`, the activation factor was inactive: 1.15.

Consider `CC(C)(C)OC(=O)N1CCC(N(C(=O)c2ccccc2)c2ccc(F)cc2)CC1`, for which the activation factor was inactive: 0.938.

Consider `CSc1ccccc1C(=O)NCC1(N2CCCCC2)CCCCC1`, for which the activation factor is inactive: 0.987.

On to `O=C(NCC1(N2CCOCC2)CCCCC1)c1cc2ccccc2o1`, for which the activation factor is inactive: 1.11.

Take `O=C(NCC1(N2CCCCC2)CCCCC1)c1ccc(Cl)nc1`: the activation factor is inactive: 0.918.

With `Cc1cc(C)cc(N(C(=O)c2ccccc2)C2CCN(C(=O)OC(C)(C)C)CC2)c1`, the activation factor is inactive: 0.888.

With `CCOC(=O)N1CCC(Nc2ccc(OC)cc2)CC1`, the activation factor is inactive: 1.12.

As for `O=C(OC1CN2CCC1CC2)C1c2ccccc2Oc2ccccc21` (configuration not stated), the activation factor is inactive: 0.947.

With `O=C(NCC1(N2CCCCC2)CCCCC1)c1ccc(Cl)s1`, the activation factor was inactive: 0.994.

With `N#CC1(Nc2ccccc2)CCN(Cc2ccccc2)CC1`, the activation factor is inactive: 0.999.

With `COc1ccc(Cl)cc1C(=O)NCC1(N2CCOCC2)CCCCC1`, the activation factor was inactive: 0.925.

`COc1ccc(CN(CCCl)CCCl)cc1Cl`: the activation factor was inactive: 1.12.

With `CN(C)c1cccc(C(=O)NCC2(N3CCCCC3)CCCCC2)c1`, the activation factor is inactive: 1.15.

Consider `CC(C)c1ccc(NC2CCN(C(=O)OC(C)(C)C)CC2)cc1`, for which the activation factor is inactive: 1.1.

With `COc1cc(OC)c(C(=O)NCC2(N(C)C)CCCCC2)cc1OC`, the activation factor was inactive: 1.09.

Consider `O=C(NCC1(N2CCOCC2)CCCCC1)c1cc(F)c(F)cc1Cl`, for which the activation factor was inactive: 1.05.

As to `O=C(NCC1(N2CCCCC2)CCCCC1)c1cncc(Br)c1`, the activation factor was inactive: 0.952.

In the case of `CN1CCC(Nc2cccc(F)c2)CC1`, the activation factor is inactive: 0.969.

For `O=C(NCC1(N2CCCCC2)CCCCC1)c1ccc(OC(F)F)cc1`, the activation factor is inactive: 1.18.

On to `O=C(NCC1(N2CCCCC2)CCCCC1)c1cccc([N+](=O)[O-])c1`, for which the activation factor was inactive: 0.87.

As for `CSc1ccc(C(=O)NCC2(N3CCOCC3)CCCCC2)cc1`, the activation factor was inactive: 1.08.

Consider `CCN1CCC(Nc2ccc(Cl)cc2)CC1`, for which the activation factor is inactive: 0.819.

In the case of `N#CC1(Nc2ccccc2)CCN(CCc2ccccc2)CC1`, the activation factor is inactive: 1.09.

With `O=C(NCC1(N2CCCCC2)CCCCC1)c1cccc(C(F)(F)F)c1`, the activation factor was inactive: 1.1.

For the molecule `CN1CCN(CCOC(=O)C(O)(c2ccccc2)c2ccccc2)CC1`, the activation factor is inactive: 0.887.

As for `COc1ccc(NC2CCN(C(=O)OC(C)(C)C)CC2)cc1`, the activation factor was inactive: 0.965.

As for `CC(C)c1ccc(C(=O)NCC2(N3CCOCC3)CCCCC2)cc1`, the activation factor is inactive: 1.16.

`COc1cc(C(=O)NCC2(N3CCCCC3)CCCCC2)ccc1OC(F)F`: the activation factor is inactive: 0.817.

In the case of `O=C(NCC1(N2CCOCC2)CCCCC1)c1cc(=O)[nH]c2ccccc12`, the activation factor was inactive: 1.07.

The values above are taken from PubChem BioAssay AID2524 (Sanford-Burnham Center for Chemical Genomics, 2010).
